Source: US12201649B2, “Pharmaceutical composition comprising oxidizable biphenol and manganese porphyrin, and method of using the same” (Villanova University, priority 2021, dated 2025)

Experiments:
Jurkat cells [1] = assay: mitochondrial ROS (superoxide) by MitoSOX Red flow cytometry; assay type: cell-based, human; conditions: 4 hours; for production of ROS in the mitochondria (MitoSOX Red): dtBQ or dtBHQ at 5 μM in the presence or absence of 12 μM MnTMPyP
Description: Referring to FIGS. 9 and 13, Jurkat cells were treated with the indicated compounds for 4 hours in RPMI with 10% FBS. Mitochondrial ROS were measured using the MitoSOX Red dye, which enters living cells, targets the mitochondria, and is preferentially oxidized by superoxide. Fluorescence was read on an Accuri C6 flow cytometer with excitation from a 488 nm laser and an FL2 filter. 10,000 events were acquired. Flow cytometry data was analyzed using Flowlogic software. Samples were gated using forward and side scatter to exclude debris, and the signal intensity versus number of events was plotted.
Referring to FIG. 9, tBQ alone is sufficient to cause apoptosis in Jurkat cells. The result is unaffected by inclusion of MnTMPyP. […] Levels of mitochondrial superoxide were quantified using MitoSOX Red and measured on the flow cytometer, with n=2 (technical replicates).
Levels of mitochondrial superoxide were quantified using MitoSOX Red and measured on the flow cytometer, with n=2 (technical replicates).

[2] = tested on: PC3 prostate cancer cells; conditions: dtBHQ at 15 μM in the presence or absence of 2 μM Mn2BuOE, 24 hours
Jurkat cells [3] = assay: apoptosis (Annexin-PE) and necrosis (RedDot 2) by flow cytometry, 4 hours; assay type: cell-based, human; conditions: 5 μM dtBHQ or dtBQ in the presence or absence of 12 μM MnTMPyP
Description: Referring to FIGS. 4, 5, 6, 8, 12 and 15, cells were treated with the indicated compounds or vehicle for 4 hours in RPMI medium with 10% fetal bovine serum (FBS). RPMI medium, also known as RPMI 1640, is a growth medium used in cell culture. In these and other figures, “vehicle” represents when a treatment compound is omitted and replaced with the vehicle that the compound is dissolved in. Thus, when a MnP is omitted, water is added in its place. When an oxidizable phenol is omitted, DMSO is added for a resulting final concentration in the cell media of 0.05% DMSO. Apoptosis was measured using Annexin-PE, and necrosis was measured with RedDot 2. Fluorescence was read on an Accuri C6 flow cytometer with excitation from a 488 nm laser, and FL2 and FL4 filters were used for Annexin-PE and RedDot2, respectively. […] Flow cytometry data was analyzed using Flowlogic software from Inivai Technologies of Australia. […] Percentage of alive, apoptotic, or necrotic cells was determined and graphed as the average±the standard deviation.
The combination of tBHQ and MnTMPyP is toxic to Jurkat cells, a CD4+ T-cell leukemic cell line. […] Cells that were alive, apoptotic or necrotic were determined using flow cytometry. Two specimens (biological duplicates) were measured for each sample.
Cells that were alive, apoptotic or necrotic were determined using flow cytometry, with n=2 (biological duplicates). […]

Compound	production of ROS in the mitochondria (MitoSOX Red) (Jurkat cells [1])	toxicity to PC3 prostate cancer cells [2]	toxicity to Jurkat cells (Jurkat cells [3])	mitochondrial ROS (superoxide, MitoSOX Red) (Jurkat cells [1]; tBQ or tBHQ at 5 μM in the presence or absence of 12 μM MnTMPyP)
CC(C)(C)c1cc(O)c(C(C)(C)C)cc1O [dtBHQ, 2,5-di-tert-butyl hydroquinone]	no production of ROS in the mitochondria	no toxicity		
CC(C)(C)C1=CC(=O)C(C(C)(C)C)=CC1=O [dtBQ, 2,5-di-tert-butyl quinone, reference compound]	no production of ROS in the mitochondria		no toxicity	
CC(C)(C)c1cc(O)ccc1O [tBHQ, tert-butylhydroquinone]				no mitochondrial ROS formation
